Literature values in patent US20190185438A1 (Tonix Pharmaceuticals Holding Corp., priority 2016, published 2019).

Tested on: patients with fibromyalgia
Conditions: 8 weeks

In the case of `CCOc1ccccc1O[C@@H](c1ccccc1)[C@@H]1CNCCO1` [Esreboxetine, (2S)-2-[(S)-(2-ethoxyphenoxy)-phenylmethyl]morpholine], the “Outcomes relevant to fibromyalgia, including the PGIC, function, and fatigue” value is given as “improvements”.
